Results: ChEMBL document CHEMBL5390232, “Discovery of (E)-2-(hydroxyimino)-N-(2 ((4methylpentyl)amino)ethyl)acetamide (KR-27425) as a non-pyridinium oxime reactivator of paraoxon-inhibited acetylcholinesterase” (2023)

Tests used:
HFL1 = test: Cytotoxicity against human HFL1 cells assessed as reduction in cell viability incubated for 24 hrs by MTT assay; settings: hfl1, 24 h
L929 = test: Cytotoxicity against mouse L929 cells assessed as reduction in cell viability incubated for 24 hrs by MTT assay; settings: l929, 24 h
[1] = Drug exposure in mouse brain at 10 mg/kg, ip measured after 30 mins by LC-MS/MS analysis; settings: read-out: Drug uptake, in vivo, 0.5 h
CHO-K1 = test: Cytotoxicity against CHO-K1 cells assessed as reduction in cell viability incubated for 24 hrs by MTT assay; settings: chinese hamster, cho-k1, 24 h
Vero = test: Cytotoxicity against African green monkey Vero cells assessed as reduction in cell viability incubated for 24 hrs by MTT assay; settings: chlorocebus sabaeus
[2] = Ratio of drug exposure in mouse brain to plasma at 10 mg/kg, ip measured after 30 mins by LC-MS/MS analysis; settings: 0.5 h
NIH3T3 = test: Cytotoxicity against mouse NIH3T3 cells assessed as reduction in cell viability incubated for 24 hrs by MTT assay; settings: nih3t3, 24 h
[3] = Drug exposure in mouse plasma at 10 mg/kg, ip measured after 30 mins by LC-MS/MS analysis; settings: read-out: Cp, in vivo, 0.5 h

SMILES | CC50 (HFL1) [µM] | CC50 (L929) [µM] | concentration [1] [nM] | CC50 (CHO-K1) [µM] | CC50 (Vero) [µM] | BPR [2] [%] | CC50 (NIH3T3) [µM] | concentration [3] [nM]
CC(C)CCCNCCNC(=O)/C=N/O | > 100 | > 100 | 445 | > 100 | > 100 | 100 | > 100 | 444
NC(=O)c1cc[n+](COC[n+]2ccccc2/C=N/O)cc1 | – | – | 185 | – | – | – | – | 4220
